Source: PMC8308721 (Pharmaceutics, 2021)
Where “and” joins values, the source holds several entries; their conditions need not be identical. Equal entries are not always repeated. Entries after “also recorded” stand apart in the source; their conditions may differ.

The chains behind the UniProt entries cited, without tags or fusion partners.
UniProt P41143, whole entry: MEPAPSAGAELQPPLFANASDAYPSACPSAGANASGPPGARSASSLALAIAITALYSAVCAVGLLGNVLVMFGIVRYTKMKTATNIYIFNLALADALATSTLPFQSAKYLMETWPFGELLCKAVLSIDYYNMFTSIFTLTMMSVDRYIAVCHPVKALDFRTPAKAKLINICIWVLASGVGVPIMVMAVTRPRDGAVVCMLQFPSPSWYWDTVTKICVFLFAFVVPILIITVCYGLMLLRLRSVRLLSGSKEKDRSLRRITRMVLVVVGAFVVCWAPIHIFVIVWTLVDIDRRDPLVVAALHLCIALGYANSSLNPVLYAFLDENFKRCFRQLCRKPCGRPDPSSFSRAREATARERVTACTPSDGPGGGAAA

Tested on: female CD-1 mice
Assay: Safety test in mice, escalating doses
Type: in vivo, mouse
Settings: 650 mg/kg vs 13 mg/kg

Q: With `CC(C)C[C@H](NC(=O)[C@H](Cc1ccccc1)NC(=O)CNC(=O)CNC(=O)[C@H](Cc1ccc(O)cc1)NC(=O)C(C)(C)C)C(=O)O` as the compound, how does the “maximum deliverable dose relative to effective dose (13 mg/kg)” value read?
A: 50 fold

Tested on: not listed separately
Assay: pooled mouse dipotassium ethylenediaminetetraacetic acid containing pooled plasma
Settings: 37 °C, up to 300 min

Q: With R^1HN-YGGFL-COOR^2 as the compound, how does the not cleaved read?
A: more than 90% of intact KK-103 after 5 h

Q: Which cleaved bond does the source give for R^1HN-YGGFL-COOR^2 [KK-14] here?
A: C-terminal methyl ester was rapidly hydrolyzed, first_seen, within minutes

Q: With R^1HN-YGGFL-COOR^2 [KK-82] as the compound, how does the cleaved bond read?
A: C-terminal methyl ester was rapidly hydrolyzed, first_seen, within minutes; also recorded: Tyr-Gly; also recorded: Gly-Phe

Q: With R^1HN-YGGFL-COOR^2 [KK-93] as the compound, how does the cleaved bond read?
A: C-terminal methyl ester was rapidly hydrolyzed, first_seen, within minutes

Q: Which cleaved bond does the source give for R^1HN-YGGFL-COOR^2 [KK-102] here?
A: C-terminal methyl ester was rapidly hydrolyzed, first_seen, within minutes

Q: For R^1HN-YGGFL-COOR^2 [KK-105], which cleaved bond is on record?
A: C-terminal methyl ester was rapidly hydrolyzed, first_seen, within minutes

Q: Which cleaved bond does the source give for R^1HN-YGGFL-COOR^2 [KK-108] here?
A: C-terminal methyl ester was rapidly hydrolyzed, first_seen, within minutes

Q: Which cleaved bond does the source give for R^1HN-YGGFL-COOR^2 [KK-112] here?
A: C-terminal methyl ester was rapidly hydrolyzed, first_seen, within minutes

Molecular target: human DOR (Homo sapiens, UniProt P41143)
Assay: not given
Settings: analog at 6 nM, [3H]DADLE displacement

Q: With `CC(C)C[C@H](NC(=O)[C@H](Cc1ccccc1)NC(=O)CNC(=O)CNC(=O)[C@H](Cc1ccc(O)cc1)NC(=O)C(C)(C)C)C(=O)O` as the compound, how does the “Relative Binding to DOR Compared to Leu-ENK [%]” value (shortened to “Relative Binding … [%]”) read?
A: 68% and 68 ± 2%

Q: For `COC(=O)[C@H](CC(C)C)NC(=O)[C@H](Cc1ccccc1)NC(=O)CNC(=O)CNC(=O)[C@H](Cc1ccc(O)cc1)NC(C)=O` [KK-14], which “Relative Binding … [%]” value is on record?
A: 38 ± 4%

Q: Which “Relative Binding … [%]” value does the source give for `CCCCCC(=O)N[C@@H](Cc1ccc(O)cc1)C(=O)NCC(=O)NCC(=O)N[C@@H](Cc1ccccc1)C(=O)N[C@@H](CC(C)C)C(=O)OC` [KK-93] here?
A: 33 ± 11%

Q: For `COC(=O)[C@H](CC(C)C)NC(=O)[C@H](Cc1ccccc1)NC(=O)CNC(=O)CNC(=O)[C@H](Cc1ccc(O)cc1)NC(=O)C(C)(C)C` [KK-102], which “Relative Binding … [%]” value is on record?
A: 70% and 70 ± 1% and 70 ± 11%

Q: With `C=CCCC(=O)N[C@@H](Cc1ccc(O)cc1)C(=O)NCC(=O)NCC(=O)N[C@@H](Cc1ccccc1)C(=O)N[C@@H](CC(C)C)C(=O)OC` [KK-105] as the compound, how does the “Relative Binding … [%]” value read?
A: 59 ± 22%

Tested on: not listed separately
Assay: pooled human cerebrospinal fluid (CSF)
Settings: 37 °C, up to 300 min

Q: Which not cleaved does the source give for R^1HN-YGGFL-COOR^2 here?
A: more than 95% after 5 h
